Values quoted from earlier work as cited in US20230382950A1, “CYCLIC APELIN RECEPTOR AGONISTS” (priority 2020, published 2023).

Settings: cited from earlier work

## Apelin [reference compound]
  half-life in the blood circulation: around one
